Test results published in ChEMBL document CHEMBL3886179, “Substituted 6, 7-dialkoxy-3-isoquinoline derivatives as inhibitors of phosphodiesterase 10 (PDE 10A)” (2015).

The chains behind the UniProt entries cited, without tags or fusion partners. Where a name states a change or a piece, a line headed by the entry shows the natural chain unless it says otherwise.
UniProt Q9Y233: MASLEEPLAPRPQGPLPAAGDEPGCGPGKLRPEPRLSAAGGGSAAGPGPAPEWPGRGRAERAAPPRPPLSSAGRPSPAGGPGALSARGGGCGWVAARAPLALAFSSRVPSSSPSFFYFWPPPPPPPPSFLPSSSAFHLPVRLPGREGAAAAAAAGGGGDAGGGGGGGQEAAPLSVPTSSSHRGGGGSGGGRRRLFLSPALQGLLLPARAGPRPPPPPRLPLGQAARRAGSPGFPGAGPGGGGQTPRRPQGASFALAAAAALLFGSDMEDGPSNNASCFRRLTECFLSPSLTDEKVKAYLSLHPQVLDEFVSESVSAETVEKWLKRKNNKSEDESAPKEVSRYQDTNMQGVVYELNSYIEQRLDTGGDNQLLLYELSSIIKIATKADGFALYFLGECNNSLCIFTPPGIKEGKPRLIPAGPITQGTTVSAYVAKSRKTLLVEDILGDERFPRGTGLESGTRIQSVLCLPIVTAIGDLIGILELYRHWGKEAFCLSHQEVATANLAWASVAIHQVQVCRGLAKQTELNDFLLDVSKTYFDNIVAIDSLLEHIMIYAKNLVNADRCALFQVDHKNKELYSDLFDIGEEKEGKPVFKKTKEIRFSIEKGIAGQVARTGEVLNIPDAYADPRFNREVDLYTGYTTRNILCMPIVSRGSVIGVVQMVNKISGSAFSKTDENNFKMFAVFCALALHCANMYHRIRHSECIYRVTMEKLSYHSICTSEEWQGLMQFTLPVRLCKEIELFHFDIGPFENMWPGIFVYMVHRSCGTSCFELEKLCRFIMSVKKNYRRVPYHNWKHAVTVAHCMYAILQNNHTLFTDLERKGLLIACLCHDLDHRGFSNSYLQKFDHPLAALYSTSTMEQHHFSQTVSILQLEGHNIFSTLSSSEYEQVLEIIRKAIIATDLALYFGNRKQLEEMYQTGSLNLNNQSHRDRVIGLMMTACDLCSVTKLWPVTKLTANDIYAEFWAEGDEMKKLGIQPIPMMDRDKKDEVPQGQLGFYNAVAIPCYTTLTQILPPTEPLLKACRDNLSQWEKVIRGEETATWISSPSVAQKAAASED

Target: cAMP and cAMP-inhibited cGMP 3',5'-cyclic phosphodiesterase 10A (Homo sapiens, UniProt Q9Y233)
Experiment: Diaxonhit Phosphodiesterase Assay: The phosphodiesterase assay was developed using the LANCE cAMP kit (PerkinElmer). The assay buffer contained HBSS with 5 mM HEPES, 0.1% BSA, and 1.5 mM MgCl2, pH 7.4. PDE10A (BPS Bioscience) was used at 200 pg/well (with a specific activity of 3200 pmole/min/ug with assay conditions: 10 mM Tris-HCl, pH 7.4, 10 mM MgCl2, 1 mM MnCl2, 200 uM cAMP, 2.5 kU 5' nucleotidase, 37° C., 20 min) and PDE4D3 (BPS Bioscience) was used at 100 pg/well (with a specific activity of 32713 pmole/min/ug with assay conditions: 10 mM Tris-HCl, pH 7.4, 10 mM MgCl2, 1 mM MnCl2, 200 uM cAMP, 2.5 kU 5' nucleotidase, 37° C., 20 min). The Biotin-cAMP tracer, supplied in 10 mmol/L Tris-HCl buffered (pH 8.0) salt solution with 1 mmol/L ethylenediaminetetraacetic acid (EDTA), 0.1% bovine serum albumin (BSA), and 0.05% sodium azide, is used at a dilution of 1/375. The assay detection mixture contained the LANCE Eu-W8044 labeled streptavidin 1/2250 (supplied in 50 mmol/L Tris-HCl buffer).

Structure (SMILES): COc1cc2c(Cc3cnc4ccccc4c3)cnc(CC(C)C)c2cc1OC
- IC50: 20 nM
